Measurements taken from ChEMBL document CHEMBL2157962, “A fluorous and click approach for screening potential PET probes: Evaluation of potential hypoxia biomarkers” (Bioorg Med Chem, 2012).

Assay: 1-Octanol-phosphate buffer partition coefficient, log P of the compound at pH 7.4 after 30 mins by shake-flask method
Type: physicochemical
Outline: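 Shake-flask: about 0.01–0.1 mg/mL compound shaken in 1-octanol and 50 mM phosphate buffer (pH 7.4) for 30 min at room temperature. Equal amounts of each phase quantified by HPLC UV absorbance (C18, isocratic ethanol:water). Triplicate, mean ± SD.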

With O=[N+]([O-])c1nccn1CC(O)CF (stereo unspecified) [FLUOROMISONIDAZOLE] as the molecule, how does the logD at 0.5 h read?
Its logD at 0.5 h is -0.33.
